{
  "sequences": {"note": "The chains behind the UniProt entries cited, without tags or fusion partners. Where a name states a change or a piece, a line headed by the entry shows the natural chain unless it says otherwise.", "UniProt P41145": "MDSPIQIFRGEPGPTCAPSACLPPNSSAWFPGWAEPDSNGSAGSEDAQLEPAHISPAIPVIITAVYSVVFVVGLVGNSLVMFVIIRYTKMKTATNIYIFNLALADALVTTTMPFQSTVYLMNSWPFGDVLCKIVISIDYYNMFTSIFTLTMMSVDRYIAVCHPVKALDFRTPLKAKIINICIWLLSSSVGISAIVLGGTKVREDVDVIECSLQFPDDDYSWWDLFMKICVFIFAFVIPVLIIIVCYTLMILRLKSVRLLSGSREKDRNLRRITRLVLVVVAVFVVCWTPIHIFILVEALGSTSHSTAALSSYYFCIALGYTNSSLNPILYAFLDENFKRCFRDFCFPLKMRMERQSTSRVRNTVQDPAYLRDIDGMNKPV", "UniProt P41143, whole entry, looked up": "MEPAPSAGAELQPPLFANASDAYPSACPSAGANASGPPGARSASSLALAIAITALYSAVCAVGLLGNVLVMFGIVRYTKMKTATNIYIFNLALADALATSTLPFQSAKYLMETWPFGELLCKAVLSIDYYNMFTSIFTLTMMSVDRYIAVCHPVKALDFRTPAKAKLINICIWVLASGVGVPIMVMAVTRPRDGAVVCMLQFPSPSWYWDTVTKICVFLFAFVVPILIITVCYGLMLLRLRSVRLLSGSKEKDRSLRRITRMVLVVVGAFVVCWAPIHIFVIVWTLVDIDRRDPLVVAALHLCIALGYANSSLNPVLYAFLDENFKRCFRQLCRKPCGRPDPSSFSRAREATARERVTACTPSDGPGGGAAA"},
  "source": "ChEMBL document CHEMBL1126621",
  "about": "(J Med Chem, 1993)",
  "target": "Opioid receptors; delta & kappa (Homo sapiens) (UniProt P41145+P41143)",
  "assay": "Relative affinity for delta and kappa opioid receptors of guinea pig brain homogenate",
  "details": "Cavia porcellus",
  "data": [
    {"compound": "CC[C@H](C)[C@H](NC(=O)[C@H](CCCNC(=N)N)NC(=O)[C@H](CCCNC(=N)N)NC(=O)[C@H](CC(C)C)NC(=O)[C@H](Cc1ccccc1)NC(=O)CNC(=O)CNC(=O)[C@@H](N)Cc1ccc(O)cc1)C(=O)N[C@@H](CCCNC(=N)N)C(=O)N1CCC[C@H]1C(=O)N[C@@H](CCCCN)C(=O)N[C@@H](CC(C)C)C(=O)N[C@@H](CCCCN)C(=O)O", "note": "[ANALOG OF DYNORPHIN A]", "values": [
      {"measurement": "Selectivity", "value": 36}
    ]}
  ]
}
